Data: the NIST ThermoML archive (doi:10.1016/j.jct.2011.04.018)

Assay: activity coefficient (dimensionless); of the first substance listed, at infinite dilution; xn = mol fraction of the nth substance listed
Conditions: 101 kPa, Liquid, Chromatography, x1 = 0

CCCCOCCCC [dibutyl ether] + O=S(=O)([N-]S(=O)(=O)C(F)(F)F)C(F)(F)F.OCCC[n+]1ccccc1
activity coefficient (308.15 K): 26.1 ± 1.8 | activity coefficient (318.15 K): 24.8 ± 1.7 | activity coefficient (328.15 K): 23.6 ± 1.6 | activity coefficient (338.15 K): 22.5 ± 1.5 | activity coefficient (348.15 K): 21.6 ± 1.5 | activity coefficient (358.15 K): 20.8 ± 1.4 | activity coefficient (368.15 K): 20 ± 1.4

± gives the expanded uncertainty stated by the source.
